The text below walks through data of patent US8367121B2, “Nutraceutical agent for attenuating the neurodegenerative process associated with Parkinson's disease” (Florida A & M University, priority 2005, dated 2013).

Each structure is given as a SMILES string.

This experiment relates to MPP+ toxicity. Kind of experiment: MPP+ toxicity in vitro (loss of ATP / cell death). It counts as cell-based.

On to `OCCN(CCO)c1nc(N2CCCCC2)c2nc(N(CCO)CCO)nc(N3CCCCC3)c2n1` [DIPYRIMADOLE, reference compound], for which the “protection against MPP+ toxicity” value was “effective”.
